Experimental data from US20260297101A1 (AbbVie Inc., priority 2015, published 2026).

Test system: pediatric subjects with severe atopic dermatitis

**Q.** CC[C@@H]1CN(C(=O)NCC(F)(F)F)C[C@@H]1c1cnc2cnc3[nH]ccc3n12 [upadacitinib, (3S,4R)-3-ETHYL-4-(3H-IMIDAZO[1,2-a]PYRROLO[2,3-e]-PYRAZIN-8-YL)-N-(2,2,2-TRIFLUOROETHYL)PYRROLIDINE-1-CARBOXAMIDE] was tested. Which “mean percent change from baseline of the EASI score” value (Week 12, overall population) did it give?
**A.** −79.8%

**Q.** And the “median percent change from baseline of the EASI score” value (Week 12, overall population)?
**A.** −82.9%

**Q.** And the “Change in EASI, mean (SD)” value (Week 12, as observed, ITT, enrollment on or after protocol v4.0, N=7)?
**A.** −26.5 (6.58)
